Experimental data from patent publication US9725446B2, “7-azaindole derivatives” (MERCK PATENT GmbH, priority 2011, dated 2017).
pIC50: −log10 of the molar value.

The chains behind the UniProt entries cited, without tags or fusion partners. Residues count along the entry.
UniProt Q14164, whole entry, species assumed: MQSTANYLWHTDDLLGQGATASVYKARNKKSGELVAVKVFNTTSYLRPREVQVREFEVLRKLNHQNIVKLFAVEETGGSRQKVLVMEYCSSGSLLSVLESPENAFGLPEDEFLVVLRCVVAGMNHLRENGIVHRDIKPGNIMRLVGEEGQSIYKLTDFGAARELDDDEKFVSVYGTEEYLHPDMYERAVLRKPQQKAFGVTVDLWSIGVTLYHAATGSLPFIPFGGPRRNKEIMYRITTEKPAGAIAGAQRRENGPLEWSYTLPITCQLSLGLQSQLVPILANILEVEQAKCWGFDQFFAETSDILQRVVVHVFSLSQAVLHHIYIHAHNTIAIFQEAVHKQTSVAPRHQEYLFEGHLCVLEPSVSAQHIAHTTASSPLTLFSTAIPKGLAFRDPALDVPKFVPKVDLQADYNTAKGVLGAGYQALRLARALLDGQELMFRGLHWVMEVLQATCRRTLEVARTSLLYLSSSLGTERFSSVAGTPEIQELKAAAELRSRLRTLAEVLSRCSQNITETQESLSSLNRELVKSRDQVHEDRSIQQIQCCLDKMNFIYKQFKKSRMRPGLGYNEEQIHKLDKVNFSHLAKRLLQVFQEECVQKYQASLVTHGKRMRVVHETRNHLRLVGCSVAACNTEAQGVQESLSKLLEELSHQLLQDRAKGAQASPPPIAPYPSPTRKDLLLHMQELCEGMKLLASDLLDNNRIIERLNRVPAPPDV
UniProt O15530, 51-556: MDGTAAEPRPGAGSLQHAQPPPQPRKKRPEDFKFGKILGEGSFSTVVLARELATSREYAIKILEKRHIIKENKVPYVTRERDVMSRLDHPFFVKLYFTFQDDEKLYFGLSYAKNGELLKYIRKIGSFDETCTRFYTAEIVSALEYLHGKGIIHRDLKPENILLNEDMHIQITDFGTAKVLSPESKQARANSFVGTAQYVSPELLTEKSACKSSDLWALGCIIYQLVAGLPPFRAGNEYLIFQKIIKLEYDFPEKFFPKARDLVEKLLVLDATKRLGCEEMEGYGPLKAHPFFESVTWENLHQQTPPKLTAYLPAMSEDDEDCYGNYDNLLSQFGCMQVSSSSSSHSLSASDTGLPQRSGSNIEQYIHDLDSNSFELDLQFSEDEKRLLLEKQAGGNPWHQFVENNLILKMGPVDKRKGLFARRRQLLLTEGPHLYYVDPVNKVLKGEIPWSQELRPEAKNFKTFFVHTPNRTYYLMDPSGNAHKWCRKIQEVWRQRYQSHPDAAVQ

Key:
IKKε = IKKε (Homo sapiens (Human), UniProt Q14164); test: IKKε kinase test (384-well flashplate); assay type: biochemical; settings: read-out: IC50 [IKKepsilon]
Experimental: The kinase assay is performed as 384-well flashplate assay.
1 nM IKKε, 800 nM biotinylated IκBα(19-42) peptide (biotin-C6-C6-[…]) and 10 μM ATP (with 0.3 μCi of ^33P-ATP/well) are incubated in a total volume of 50 μl (10 mM MOPS, 10 mM magnesium acetate, 0.1 mM EGTA, 1 mM dithiothreitol, 0.02% of Brij35, 0.1% of BSA, 0.1% of BioStab, pH 7.5) with or without test substance at 30° C. for 120 min. The reaction is stopped using 25 μl of 200 mM EDTA solution, filtered off with suction after 30 min at room temperature, and the wells are washed 3 times with 100 μl of 0.9% NaCl solution. The non-specific proportion of the kinase reaction (blank) is determined using 3 μM EMD 1126352 (BX-795). Radioactivity is measured in the Topcount. IC50 values are calculated using RS1.

PDK1 = PDK1 (Homo sapiens (Human), UniProt O15530); test: Test for the inhibition of PDK1 (flashplate, 33P-ATP); assay type: biochemical
Experimental: The experimental batches are carried out in a flashplate system with 384 wells/microtitration plate.
In each case, the PDK1 sample His6-PDK1 ([…]1-50)(3.4 nM), the PDK1 substrate biotin-bA-bA-[…] (400 nM), 4 μM ATP (with 0.2 μCi of ^33P-ATP/well) and the test substance in 50 μl of conventional experimental solution per well are incubated at 30° C. for 60 min. The test substances are employed in corresponding concentrations (if desired in a dilution series). The control is carried out without test substance. The reaction is stopped using standard methods and washed. The activity of the kinase is measured via the incorporated radioactivity in top count. In order to determine the non-specific kinase reaction (blank value), the experimental batches are carried out in the presence of 100 nM staurosporine.
The radioactivity (decompositions per minute) of the blank value (no use of test substance in the presence of staurosporine) is subtracted from all other radioactivity values. The controls (kinase activity without test substance) are set equal to 100 percent and all other radioactivity values (after subtracting the blank value) are expressed set in relation thereto (for example in % of the control).

Q: How did the pIC50 (IKKε) turn out when `Cn1cc(-c2c[nH]c3ncccc23)c2ccncc21` [Compound A19, 1-methyl-3-(1H-pyrrolo[2,3-b]pyridin-3-yl)-1H-pyrrolo[2,3-c]pyridine] was run?
A: 5.00 to 6.00

Q: And the pIC50 (PDK1)?
A: 5.00 to 6.00
